The source of these data is patent EP3954371B1, “ANTI-ACETYLCHOLINESTERASE ACTIVE COMPOSITION IN CAULIS MAHONIAE AND SCREENING METHOD THEREFOR AND APPLICATION THEREOF” (Shenzhen Institute for Drug Control (Shenzhen Testing …, priority 2019, dated 2021).

By UniProt entry, the sequences of proteins in these tests, tags left out. Residues count along the entry.
UniProt P22303, 32-614: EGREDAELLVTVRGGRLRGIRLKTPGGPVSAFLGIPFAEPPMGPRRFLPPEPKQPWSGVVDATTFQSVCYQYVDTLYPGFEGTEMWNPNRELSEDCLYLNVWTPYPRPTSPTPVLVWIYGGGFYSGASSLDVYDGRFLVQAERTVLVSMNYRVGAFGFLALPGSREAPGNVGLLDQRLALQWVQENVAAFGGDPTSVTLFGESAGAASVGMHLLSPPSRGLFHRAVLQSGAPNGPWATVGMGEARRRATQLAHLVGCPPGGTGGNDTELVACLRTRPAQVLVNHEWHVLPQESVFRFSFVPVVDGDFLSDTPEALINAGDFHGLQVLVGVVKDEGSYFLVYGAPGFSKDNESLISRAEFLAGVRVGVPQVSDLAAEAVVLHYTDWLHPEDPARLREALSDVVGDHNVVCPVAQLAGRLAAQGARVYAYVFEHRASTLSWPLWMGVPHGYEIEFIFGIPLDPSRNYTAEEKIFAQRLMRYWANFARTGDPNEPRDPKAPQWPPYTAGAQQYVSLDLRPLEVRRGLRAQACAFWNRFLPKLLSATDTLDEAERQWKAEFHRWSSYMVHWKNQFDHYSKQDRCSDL

The test has as its target T1, AChE (Homo sapiens, UniProt P22303).
T1 construct: purchased Sigma
As to the kind of experiment: biochemical. How it is done: For the reaction system, see Table 3. The specific steps are described below.
140 µL of phosphate buffer (PBS, 0.1 mol/L, pH = 7.4), 20 µL of AChE (0.303 U/mL) and 20 µL of sample solution were added in sequence to a 96-well plate, mixed evenly, and added with 10 µL of DTNB (3.3 mM) and 10 µL of acetylthiocholine iodide (ATCI) (15 mM). They were mixed evenly and incubated for 10 min at 37 °C, then measured absorbance at 405 nm.
The sample was replaced with PBS in a blank enzyme group. The sample was replaced with PBS in a blank enzyme-free group. The enzyme solution was replaced with PBS in the sample control group.
The inhibitory rate of the sample against AChE activity is calculated by the following formula: Inhibitory rate = [1−(Asample−Asample control)/(Ablank enzyme−Ablank enzyme−free)] × 100% [formula]
The median inhibitory concentration of AChE was calculated by testing inhibitory rates at different sample concentrations. […] Table 3 Anti-AChE activity screening method

pIC50: −log10 of the molar value.

Take `COc1ccc2cc3[n+](cc2c1OC)CCc1cc2c(cc1-3)OCO2` [Ber, berberine]: the pIC50 (commonly the IC50 on a negative log10 scale, so that one unit is a factor of ten) was 5.13.
